Test results from PMC6505380, “An Extensively Humanized Mouse Model to Predict Pathways of Drug Disposition and Drug/Drug Interactions, and to Facilitate Design of Clinical Trials” (Drug Metabolism and Disposition, 2019).

By UniProt entry, the sequences of proteins in these tests, tags left out.
UniProt P05177, whole entry: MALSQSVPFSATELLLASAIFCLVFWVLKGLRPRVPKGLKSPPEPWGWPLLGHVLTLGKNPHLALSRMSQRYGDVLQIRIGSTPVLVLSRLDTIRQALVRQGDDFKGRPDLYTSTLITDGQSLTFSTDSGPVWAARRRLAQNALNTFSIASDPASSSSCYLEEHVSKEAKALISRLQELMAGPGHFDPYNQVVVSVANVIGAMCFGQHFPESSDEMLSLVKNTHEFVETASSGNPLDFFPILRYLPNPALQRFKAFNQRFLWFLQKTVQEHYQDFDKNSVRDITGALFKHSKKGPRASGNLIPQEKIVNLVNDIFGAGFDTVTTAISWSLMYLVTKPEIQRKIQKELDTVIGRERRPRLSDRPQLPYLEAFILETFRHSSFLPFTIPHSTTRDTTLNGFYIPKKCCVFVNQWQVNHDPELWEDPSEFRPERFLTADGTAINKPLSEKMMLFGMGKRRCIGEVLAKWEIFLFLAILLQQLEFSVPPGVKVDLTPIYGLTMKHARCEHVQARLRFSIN

Target: CYP1A2 (Homo sapiens, UniProt P05177)
Conditions: 8HUM, mouse, microsomes, 3.33 μM, pH 7.4

Inhibition of 7-methoxyresorufin metabolism: 93%
SMILES: O=c1cc(-c2ccccc2)oc2c1ccc1ccccc12 [α-naphthoflavone]
